# Results taken from patent US20200360477A1.
# Amino acid sequences for entries named in this document (tags omitted). A change or cut given only in a name is not applied to a line headed by its entry.
# UniProt Q9UBF8: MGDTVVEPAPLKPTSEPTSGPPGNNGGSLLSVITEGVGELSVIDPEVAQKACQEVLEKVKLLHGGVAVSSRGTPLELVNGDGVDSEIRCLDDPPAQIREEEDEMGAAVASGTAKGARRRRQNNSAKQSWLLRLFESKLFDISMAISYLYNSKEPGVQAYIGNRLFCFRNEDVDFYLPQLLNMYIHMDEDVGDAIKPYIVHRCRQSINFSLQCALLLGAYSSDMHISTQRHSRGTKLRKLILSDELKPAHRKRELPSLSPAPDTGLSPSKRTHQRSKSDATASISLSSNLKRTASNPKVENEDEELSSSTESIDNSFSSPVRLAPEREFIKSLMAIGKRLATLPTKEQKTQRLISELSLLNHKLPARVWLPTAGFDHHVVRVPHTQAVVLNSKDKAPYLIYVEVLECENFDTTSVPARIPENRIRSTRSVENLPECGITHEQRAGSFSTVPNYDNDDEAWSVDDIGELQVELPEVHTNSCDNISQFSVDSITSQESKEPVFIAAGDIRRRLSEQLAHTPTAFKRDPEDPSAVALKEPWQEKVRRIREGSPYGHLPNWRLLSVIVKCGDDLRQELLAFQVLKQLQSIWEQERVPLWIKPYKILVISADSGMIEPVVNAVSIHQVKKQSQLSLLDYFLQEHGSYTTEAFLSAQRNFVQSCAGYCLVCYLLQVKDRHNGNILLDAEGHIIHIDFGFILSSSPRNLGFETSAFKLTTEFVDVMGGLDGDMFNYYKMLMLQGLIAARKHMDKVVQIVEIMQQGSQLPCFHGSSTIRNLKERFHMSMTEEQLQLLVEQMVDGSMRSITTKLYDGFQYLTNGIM
# Target: T1, PIK4CB (Homo sapiens, UniProt Q9UBF8)
# T1 construct: purchased Eurofins DiscoverX Corporation (KINOMEscan); host or cells: E. coli BL21-derived host (T7 phage) or HEK-293
# Test: KINOMEscan competition binding assay
substance,measurement,value
"imatinib [Compound A, reference compound]",Kd,> 10 µM
